Measured values taken from ChEMBL document CHEMBL4715841, “Discovery of dihydropyrazino-benzimidazole derivatives as metabotropic glutamate receptor-2 (mGluR2) positive allosteric modulators (PAMs)” (Eur J Med Chem, 2020).

Amino acid sequences for entries named in this document (tags omitted).
UniProt P11712, whole entry: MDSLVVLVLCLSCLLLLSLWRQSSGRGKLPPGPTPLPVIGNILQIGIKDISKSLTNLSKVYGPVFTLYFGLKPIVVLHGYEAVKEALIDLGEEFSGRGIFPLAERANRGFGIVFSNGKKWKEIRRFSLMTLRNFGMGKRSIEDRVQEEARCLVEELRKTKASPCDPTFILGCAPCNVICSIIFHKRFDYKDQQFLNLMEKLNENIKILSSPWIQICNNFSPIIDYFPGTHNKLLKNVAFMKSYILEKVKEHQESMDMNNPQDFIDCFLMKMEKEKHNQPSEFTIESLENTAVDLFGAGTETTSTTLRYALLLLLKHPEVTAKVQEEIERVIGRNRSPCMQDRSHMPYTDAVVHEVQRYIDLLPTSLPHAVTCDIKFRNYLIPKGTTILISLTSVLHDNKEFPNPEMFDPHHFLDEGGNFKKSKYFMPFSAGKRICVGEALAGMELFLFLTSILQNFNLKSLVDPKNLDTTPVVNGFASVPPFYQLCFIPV

Molecular target: Cytochrome P450 2C9 (Homo sapiens, UniProt P11712)

O=C1c2nc3ccccc3n2CCN1CCCCOc1ccc(OC(F)(F)F)cc1
IC50: 7 µM
